Measured values taken from PubChem BioAssay AID1347073 (National Center for Advancing Translational Sciences (NCATS), 2019).
The list shows a part of the results, in another mix than the full data. Results filed as inconclusive are left out. Activity calls are given as the source filed them. Calls follow the shape of the dose curve; as a rule, active = well fitted activation curve with a large enough effect; inconclusive = small, poorly fitted or top-dose-only effect; inactive = no such curve, though single readings can be large or run the other way.

Assay: qHTS of TDP-43 Inhibitors: NCGC Sytravon Library Screen; also: 0% is about no effect; nearly all actives have a fitted effect of over 55% in size
Conditions: yeast TDP-43 toxicity rescue, BacTiter-Glo growth, 24 h; at 46.1 µM (top of the series)
Description: The goal of this project is to identify new chemical probes capable of reversing the toxicity associated with TDP-43 which is associated with frontotemporal lobar degeneration and amyotrophic lateral sclerosis. These compounds will provide a complementary approach to deciphering the tangled mechanisms of toxicity and protection that we have uncovered through genome-wide genetic screens and are beginning to uncover in a large-scale proteomics analysis with mass spectroscopy. To this end, a miniaturized assay was developed to be screened against the Molecular Libraries Small Molecule Repository (MLSMR) to discover TDP-43 inhibitors. Please note that in the set-up this yeast-based assay compounds that inhibit as TDP-43, have a read-out as activators. NIH Chemical Genomics Center [NCGC] NIH Molecular Libraries Probe Centers Network [MLPCN] Assay Submitter (PI): Susan Lindquist, Whitehead Institute/MIT MLPCN Grant: R21 NS060957
Dispense 2.5 microL yeast galactose medium per 1536-well plate, pin compound, dispense 2.5 microL TDP-43 expressing yeast in galactose medium at OD600=0.02 (pregrown in raffinose medium to mid-log phase) per well, incubate for 24 hr at 30 deg C, and cell growth will be measured using 5 microL of Bactiter/Glo reagent to entire plate and read using Luminescence Protocol in ViewLux.

SMILES | growth rescue (activation)
CCOP(=O)(Nc1cccc2ccccc12)OCC | inactive: -2.3%
Cc1cc(=O)[nH]c(N[N+](=O)[O-])n1 | inactive: -1.48%
O=P(Nc1ccccn1)(c1cccc2ccccc12)c1cccc2ccccc12 | inactive: 6.32%
Cc1ccc(NP(=O)(Oc2ccccc2)Oc2ccccc2)nc1 | inactive: 10.7%
O=[N+]([O-])c1ncn(CCn2ncnc2[N+](=O)[O-])n1 | inactive: 7.36%
NC(=O)c1cc([N+](=O)[O-])cc([N+](=O)[O-])c1N | inactive: -1.17%
O=c1c2cc([N+](=O)[O-])ccc2[nH]c2c([N+](=O)[O-])cc([N+](=O)[O-])cc12 | inactive: -94.7%
CC(=O)NC(SC(=S)N(CC(C)C)CC(C)C)C(Cl)(Cl)Cl (stereo unspecified) | inactive: 4.66%
CCNC(=S)/N=C(\N)N[N+](=O)[O-] | inactive: 3.7%
O=P(Nc1nc2ccccc2s1)(c1ccccc1)c1ccccc1 | inactive: 24.6%
O=P(Nc1ccccn1)(c1ccc(Br)cc1)c1ccc(Br)cc1 | inactive: -1.43%
